These results are taken from patent US6299861A, “Ipratropium bromide enantiomer with prolonged duration of effect” (Boehringer Ingelheim KG, priority 1995, dated 2001).

Experiment [1] relates to CHO-HM receptors. To be noted: compared with racemate.
Experiment [2] deals with acetylcholine-induced bronchospasm. Kind of experiment: Inhibition of acetylcholine-induced bronchospasm in the anaesthetised dog after administration by inhalation. To be noted: eutomer:racemate weight ratio 1:2.

In the case of `CC(C)[N+]1(C)C2CCC1CC(OC(=O)C(CO)c1ccccc1)C2` (single isomer, unassigned) [BIIH 150 BR, (endo, syn)-(-)-3-(3-hydroxy-l-oxo-2-phenylpropoxy)-8-methyl-8-(1-methylethyl)-8-azoniabicyclo [3,2,1]octane], in experiment [1], the “affinity relative to the racemate” value was “approximately twice as high”. In addition, in experiment [2], the “duration of activity compared with the racemate” value is given as “considerably longer duration of activity” and the “potency compared with the racemate” value is “higher potency”.
